Values of other authors in patent US20110123612A1, “PHARMACEUTICAL PREPARATION CONTAINING NON-DIHYDROPYRIDINE CALCIUM CHANNEL BLOCKER AND ANGIOTENSIN-2 RECEPTOR BLOCKER” (priority 2008, published 2011).

By UniProt entry, the sequences of proteins in these tests, tags left out.
UniProt P08684, whole entry: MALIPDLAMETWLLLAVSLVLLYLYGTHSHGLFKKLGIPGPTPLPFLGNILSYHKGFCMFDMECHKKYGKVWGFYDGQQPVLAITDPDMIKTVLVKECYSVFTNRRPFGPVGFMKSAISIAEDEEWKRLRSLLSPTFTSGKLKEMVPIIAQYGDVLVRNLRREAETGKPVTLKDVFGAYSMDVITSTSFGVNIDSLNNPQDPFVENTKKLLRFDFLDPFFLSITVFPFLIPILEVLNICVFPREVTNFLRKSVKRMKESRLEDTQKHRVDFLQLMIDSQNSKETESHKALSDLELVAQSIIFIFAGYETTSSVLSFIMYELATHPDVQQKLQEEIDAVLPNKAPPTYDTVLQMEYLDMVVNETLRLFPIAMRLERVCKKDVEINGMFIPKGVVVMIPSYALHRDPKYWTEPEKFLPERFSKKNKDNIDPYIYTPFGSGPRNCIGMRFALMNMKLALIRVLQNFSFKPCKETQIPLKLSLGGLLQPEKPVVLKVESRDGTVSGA

Biological target: cytochrome P450 3A4 (Homo sapiens, UniProt P08684)

Compound	inhibitory effects on cytochrome P450 3A4
COc1ccc([C@@H]2Sc3ccccc3N(CCN)C(=O)[C@@H]2OC(C)=O)cc1 [N,N-didesmethyl diltiazem]	more potent inhibitory effects on the synthesis of cytochrome P450 3A4 than diltiazem
CNCCN1C(=O)[C@H](OC(C)=O)[C@H](c2ccc(OC)cc2)Sc2ccccc21 [N-desmethyl diltiazem]	more potent inhibitory effects on the synthesis of cytochrome P450 3A4 than diltiazem
